Screening results deposited in PubChem BioAssay by several laboratories.
In the library only some 0.91% were active in any assay of this set; here they are far more common.
C2C12 statin: suppressors of statin myotoxicity in C2C12 myotubes, primary screen, cell-based, single point, plate reader; rescue of ATP level, % at 7.49 µM; C2C12 myotubes + simvastatin, ATP luminescence, 48 h; scaled: DMSO 0, geranylgeraniol control 100; AID 602340, 2012; actives 0.78% (n = 330,000);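 active means mean ATP rescue above about 67%, or every replicate alone reaching that limit, limit read from the data, passing the limit was not always enough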;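 further: myotubes were challenged with 10 µM simvastatin during compound exposure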
Yeast UUG start: modulators of start codon recognition fidelity in yeast; AID 602363; activity score, % at 18.7 µM; S. cerevisiae UUG-firefly luciferase reporter, luminescence/redox ratio; actives 0.13% (n = 350,000);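 active = replicate mean at a twofold rise or more, about +100% in these data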;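 note: firefly luciferase made from a UUG start codon reports start codon fidelity; reporter light over untreated wells divided by growth signal over untreated wells; some hits fall short of that in this replicate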
PGC1a acetyl inh: inhibitors of PGC1a acetylation signal, primary screen, cell-based, U2OS, AlphaScreen, inhibitor mode | AlphaScreen anti-acetyl-lysine; with virally co-expressed GCN5 acetyltransferase | inhibition, % at 15.6 µM | actives 0.17% (n = 350,000) | AID 651687, 2012;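 active means every replicate shows inhibition of at least 40%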;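 further: 0% = neutral control wells and 100% = positive control wells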
FN deposition inh: inhibitors of fibronectin matrix deposition, primary screen, AH1F cells, Alexa488-fibronectin fluorescence, plate reader. AH1F fibroblasts, overnight. inhibition, % at 12.6 µM. actives 0.086% (n = 350,000). AID 743247, 2014;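 active means mean inhibition across replicates of 30% or more, regardless of how many single replicates reach that level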;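 further: positive control wells lacked labelled fibronectin entirely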
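Assay system: AH1F fibroblast monolayer, labelled fibronectin deposition. Amount: 10000 cells per well. Also added: labelled fibronectin 24 nM. Compound: single-point pinned compound. Incubation: cell attachment 1 h, compound and FN exposure overnight. Detection: fluorescence after three HBSS washes, excitation 485 nm, emission 525 nm. Read-out: inhibition of fibronectin deposition signal.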
iPSC survival up: enhancers of single-cell hiPSC survival, primary screen, ATPlite luminescence; 100% = ROCK inhibitor wells, 0% = DMSO; actives 0.044% (n = 360,000); survival enhancement, % at 20 µM; in the data active means survival enhancement above about 18%;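 further: cells exposed to compounds for 16 hours before the ATP read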
An asterisk follows results filed as active.

`COc1ccc(OC)c(C(=O)/C=C/c2ccccc2C(F)(F)F)c1` gave C2C12 statin 44, Yeast UUG start -18, PGC1a acetyl inh 46* and iPSC survival up -1.
`COc1ccc(C(=O)/C=C/c2ccccc2)c(OC)c1` gave C2C12 statin -6, Yeast UUG start -21, PGC1a acetyl inh 39 and iPSC survival up -5.
Screening CCOC(=O)C1(Cc2cccc(Cl)c2)CCCN(C(=O)c2cccnc2)C1 (stereo unspecified) returned C2C12 statin -14, PGC1a acetyl inh 97*, FN deposition inh -2 and iPSC survival up 3.
Fc1ccc(CNC(=S)NCc2ccc(F)cc2)cc1 was read as C2C12 statin 15, PGC1a acetyl inh 87*, FN deposition inh 0 and iPSC survival up 0.
`COCC(=O)NC[C@H]1[C@H](c2ccc(-c3ccccc3)cc2)[C@H](CO)N1C(C)=O` gave C2C12 statin -5, Yeast UUG start 21 and PGC1a acetyl inh 7.
For CC(C)NC(=O)N1CC[C@@H]2[C@H]1c1cc(C#Cc3ccccc3)ccc1N(C)[C@@H]2CO the results were C2C12 statin 14, Yeast UUG start -6, PGC1a acetyl inh 2 and FN deposition inh 9.
For C[C@H]1CN([C@@H](C)CO)C(=O)c2cccc(NC(=O)c3nc4ccccc4s3)c2O[C@H]1CN(C)Cc1ccc2c(c1)OCO2 the results were FN deposition inh 20.
Screening Cc1ccc(C2CC2C(=O)NNC(=S)Nc2cccc(Cl)c2)cc1 (stereo unspecified) returned C2C12 statin 81*, Yeast UUG start -25, PGC1a acetyl inh 11, FN deposition inh 4 and iPSC survival up 2.
Screening Cc1ccc(C2CC2C(=O)NNC(=S)Nc2cccc(C)c2)cc1 (stereo unspecified) returned C2C12 statin 42, Yeast UUG start -22, FN deposition inh -22 and iPSC survival up -1.
`CN1CCN(C(=O)C[C@H]2CC[C@H]3[C@@H](COC[C@@H](O)CN3Cc3cccc(-c4ccncc4)c3)O2)CC1` gave C2C12 statin 19, Yeast UUG start -11, PGC1a acetyl inh -2 and FN deposition inh 2.
COc1ccc(NC(=S)NCC2CCCO2)c(OC)c1 (stereo unspecified) was read as C2C12 statin 91*, Yeast UUG start -31, PGC1a acetyl inh 0, FN deposition inh 2 and iPSC survival up -3.
`O=C(Nc1ccccc1Cl)NC1(C(=O)N2CCCCC2)CCCCC1` gave C2C12 statin 101*, Yeast UUG start -11, PGC1a acetyl inh 50 and iPSC survival up 0.

Compounds shown so far that contain a Cl atom (3):
Screening CCOC(=O)C1(Cc2cccc(Cl)c2)CCCN(C(=O)c2cccnc2)C1 (stereo unspecified) returned C2C12 statin -14, PGC1a acetyl inh 97*, FN deposition inh -2 and iPSC survival up 3.
Screening Cc1ccc(C2CC2C(=O)NNC(=S)Nc2cccc(Cl)c2)cc1 (stereo unspecified) returned C2C12 statin 81*, Yeast UUG start -25, PGC1a acetyl inh 11, FN deposition inh 4 and iPSC survival up 2.
`O=C(Nc1ccccc1Cl)NC1(C(=O)N2CCCCC2)CCCCC1` gave C2C12 statin 101*, Yeast UUG start -11, PGC1a acetyl inh 50 and iPSC survival up 0.

(cont.)
Screening O=C(Nc1ccccc1Cl)NC1(C(=O)N2CCCC2)CCCCC1 returned C2C12 statin 13, Yeast UUG start -12, PGC1a acetyl inh -13 and iPSC survival up -2.
For Cc1cc(C)c2nc(N3CCN(C)CC3)c(C#N)cc2c1 the results were C2C12 statin 3, Yeast UUG start -16, PGC1a acetyl inh -2, FN deposition inh -12 and iPSC survival up 21*.
C[C@H]1CN([C@@H](C)CO)C(=O)c2cc(C#CCc3ccccc3)cnc2O[C@@H]1CN(C)Cc1cccnc1 was read as C2C12 statin -10, Yeast UUG start 5, PGC1a acetyl inh -20 and FN deposition inh 7.
Screening CCCCCC1CC(CC(=O)Nc2ccc([N+](=O)[O-])cc2)C(=O)O1 (stereo unspecified) returned FN deposition inh -6 and iPSC survival up 1.
`CCCCCC1CC(CC(=O)O)C(=O)O1` (stereo unspecified) gave C2C12 statin 119*, Yeast UUG start -1, PGC1a acetyl inh 5 and iPSC survival up -2.
Screening Cc1ccc(S(=O)(=O)N2C[C@H](O)COC[C@H]3O[C@H](CC(=O)N[C@@H]4CCN(Cc5ccccc5)C4)CC[C@@H]32)cc1 returned C2C12 statin -11, Yeast UUG start -7, PGC1a acetyl inh 6 and FN deposition inh -2.
CCN1CCN(c2ncc(C(=O)Nc3cc(Cl)ccc3OC)c3ccccc23)CC1 was read as Yeast UUG start -1, PGC1a acetyl inh 93* and iPSC survival up -5.
For COc1ccccc1N1CCN(c2ncc(C(=O)N3CCN(c4cccc(Cl)c4)CC3)c3ccccc23)CC1 the results were PGC1a acetyl inh 1, FN deposition inh 3 and iPSC survival up 0.
CC(=O)c1ccc(NC(=O)Nc2sc(NS(=O)(=O)c3ccccc3)nc2C)cc1 was read as C2C12 statin 100*, Yeast UUG start -15, PGC1a acetyl inh 14, FN deposition inh 7 and iPSC survival up 0.
For CN(C)C(=O)[C@@H]1[C@@H](CO)[C@@H]2Cn3c(ccc(/C=C/c4ccccc4)c3=O)[C@@H]2N1C(=O)c1cccnc1 the results were C2C12 statin -22 and FN deposition inh -5.
COc1ccccc1-c1noc(-c2cccs2)n1 was read as C2C12 statin 224*, Yeast UUG start -18, PGC1a acetyl inh -2 and iPSC survival up -2.
For COc1ccc(Br)cc1-c1noc(-c2ccncc2)n1 the results were C2C12 statin 0, Yeast UUG start -9, PGC1a acetyl inh 9 and iPSC survival up -1.
Screening COc1ccccc1-c1noc(-c2ccncc2)n1 returned C2C12 statin 112*, Yeast UUG start -29, PGC1a acetyl inh 1 and iPSC survival up -1.
Screening CC(=O)Nc1ccc2c(c1)C(=O)N(C)[C@H]1CC[C@H](CC(=O)Nc3ccc(Cl)cc3)O[C@@H]1CO2 returned C2C12 statin 16, Yeast UUG start 13, PGC1a acetyl inh 4 and FN deposition inh 4.
Screening CCOC(=O)c1sc(NC(=O)c2c(C)nn(Cc3ccccc3)c2C)cc1C returned C2C12 statin 102*, Yeast UUG start -14, PGC1a acetyl inh 6, FN deposition inh -2 and iPSC survival up -3.
`O=C1C=CC(=O)c2c(O)c(N3CCN(CCO)CC3)c(Cl)c(O)c21` gave C2C12 statin -183, PGC1a acetyl inh 51*, FN deposition inh 10 and iPSC survival up 2.
`COc1cccc(NC(=O)CSc2nc(C)cs2)c1` gave C2C12 statin 109*, Yeast UUG start 10, PGC1a acetyl inh 5 and iPSC survival up -2.
For Cc1noc(C)c1NC(=O)Nc1cccc2c1O[C@@H](CN(C)C(=O)Nc1ccc(F)cc1)[C@H](C)CN([C@H](C)CO)C2=O the results were PGC1a acetyl inh 6.
O=C(Cc1ccccn1)NCC[C@H]1CC[C@@H](NC(=O)Nc2ccc(F)cc2)[C@@H](CO)O1 was read as C2C12 statin -7, Yeast UUG start -9 and PGC1a acetyl inh 1.
For O=C(Cc1ccccn1)NCC[C@H]1CC[C@@H](NC(=O)Nc2ccc(C(F)(F)F)cc2)[C@@H](CO)O1 the results were C2C12 statin -3, Yeast UUG start 3, PGC1a acetyl inh 102* and FN deposition inh -1.
